Results on 30 compounds are retold here after PubChem BioAssay (Tox21).

Sequences of proteins named here, by UniProt entry; tags and fusion partners are left off. A change or cut given only in a name is not applied to a line headed by its entry.
UniProt P10275: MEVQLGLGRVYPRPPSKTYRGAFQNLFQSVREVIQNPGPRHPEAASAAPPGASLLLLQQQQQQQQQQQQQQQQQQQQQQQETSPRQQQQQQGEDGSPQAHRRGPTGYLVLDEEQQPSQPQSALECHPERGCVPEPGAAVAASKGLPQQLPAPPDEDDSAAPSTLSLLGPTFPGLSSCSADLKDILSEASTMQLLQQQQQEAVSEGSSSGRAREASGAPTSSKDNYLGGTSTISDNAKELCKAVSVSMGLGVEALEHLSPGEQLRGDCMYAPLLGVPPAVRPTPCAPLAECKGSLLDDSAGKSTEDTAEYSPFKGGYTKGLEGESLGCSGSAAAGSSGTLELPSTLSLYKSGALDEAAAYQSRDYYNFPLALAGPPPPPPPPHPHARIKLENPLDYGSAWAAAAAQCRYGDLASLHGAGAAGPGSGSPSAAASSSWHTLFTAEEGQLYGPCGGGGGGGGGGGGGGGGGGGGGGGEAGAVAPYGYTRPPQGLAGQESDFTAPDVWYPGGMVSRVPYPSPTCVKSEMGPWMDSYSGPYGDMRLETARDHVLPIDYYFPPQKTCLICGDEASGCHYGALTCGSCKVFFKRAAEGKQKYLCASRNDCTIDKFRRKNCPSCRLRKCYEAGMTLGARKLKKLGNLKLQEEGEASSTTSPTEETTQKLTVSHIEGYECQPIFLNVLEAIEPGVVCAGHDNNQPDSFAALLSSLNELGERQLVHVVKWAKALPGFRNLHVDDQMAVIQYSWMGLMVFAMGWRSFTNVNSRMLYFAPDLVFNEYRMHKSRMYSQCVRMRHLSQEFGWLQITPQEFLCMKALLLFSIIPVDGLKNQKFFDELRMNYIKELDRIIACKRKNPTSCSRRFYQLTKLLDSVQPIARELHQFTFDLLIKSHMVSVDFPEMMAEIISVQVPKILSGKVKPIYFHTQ
UniProt Q92731, whole entry, looked up: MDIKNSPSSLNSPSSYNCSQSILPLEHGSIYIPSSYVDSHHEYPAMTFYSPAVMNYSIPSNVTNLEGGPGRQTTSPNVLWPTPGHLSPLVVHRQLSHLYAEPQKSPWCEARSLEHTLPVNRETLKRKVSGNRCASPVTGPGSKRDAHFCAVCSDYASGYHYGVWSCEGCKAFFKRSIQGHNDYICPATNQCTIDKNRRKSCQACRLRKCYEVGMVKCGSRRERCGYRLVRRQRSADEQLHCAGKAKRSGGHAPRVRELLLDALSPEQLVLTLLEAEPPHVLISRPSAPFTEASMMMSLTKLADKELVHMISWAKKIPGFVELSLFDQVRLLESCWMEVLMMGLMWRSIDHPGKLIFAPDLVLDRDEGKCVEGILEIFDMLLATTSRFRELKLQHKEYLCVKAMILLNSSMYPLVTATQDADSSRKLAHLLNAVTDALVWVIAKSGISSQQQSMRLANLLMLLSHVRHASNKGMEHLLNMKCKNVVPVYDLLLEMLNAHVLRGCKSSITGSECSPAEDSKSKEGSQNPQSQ
UniProt P03372, whole entry, looked up: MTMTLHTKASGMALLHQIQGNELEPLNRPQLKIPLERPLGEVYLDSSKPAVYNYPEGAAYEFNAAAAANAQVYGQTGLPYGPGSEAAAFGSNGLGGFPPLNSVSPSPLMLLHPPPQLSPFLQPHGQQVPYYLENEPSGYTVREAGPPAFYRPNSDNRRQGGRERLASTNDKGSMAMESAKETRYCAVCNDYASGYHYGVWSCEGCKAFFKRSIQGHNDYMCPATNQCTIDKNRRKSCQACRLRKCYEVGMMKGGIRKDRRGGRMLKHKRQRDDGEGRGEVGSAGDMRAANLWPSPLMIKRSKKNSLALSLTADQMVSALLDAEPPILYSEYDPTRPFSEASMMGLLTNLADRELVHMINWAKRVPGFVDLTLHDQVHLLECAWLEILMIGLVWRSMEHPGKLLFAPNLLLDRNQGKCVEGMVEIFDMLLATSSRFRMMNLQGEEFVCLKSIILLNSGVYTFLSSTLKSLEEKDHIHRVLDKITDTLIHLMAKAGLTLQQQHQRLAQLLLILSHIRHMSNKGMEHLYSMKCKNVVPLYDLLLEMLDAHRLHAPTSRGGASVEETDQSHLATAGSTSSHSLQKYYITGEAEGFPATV
UniProt Q14994: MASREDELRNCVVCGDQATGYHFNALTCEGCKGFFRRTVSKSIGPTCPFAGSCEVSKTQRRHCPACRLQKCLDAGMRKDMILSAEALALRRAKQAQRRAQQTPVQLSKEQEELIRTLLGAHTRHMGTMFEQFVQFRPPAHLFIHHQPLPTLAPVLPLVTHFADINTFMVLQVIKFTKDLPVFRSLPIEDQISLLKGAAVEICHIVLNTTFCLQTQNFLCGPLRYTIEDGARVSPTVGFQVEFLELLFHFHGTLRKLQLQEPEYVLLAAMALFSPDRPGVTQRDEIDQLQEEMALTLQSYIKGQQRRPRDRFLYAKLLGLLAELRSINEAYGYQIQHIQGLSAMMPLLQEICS
UniProt Q96RI1: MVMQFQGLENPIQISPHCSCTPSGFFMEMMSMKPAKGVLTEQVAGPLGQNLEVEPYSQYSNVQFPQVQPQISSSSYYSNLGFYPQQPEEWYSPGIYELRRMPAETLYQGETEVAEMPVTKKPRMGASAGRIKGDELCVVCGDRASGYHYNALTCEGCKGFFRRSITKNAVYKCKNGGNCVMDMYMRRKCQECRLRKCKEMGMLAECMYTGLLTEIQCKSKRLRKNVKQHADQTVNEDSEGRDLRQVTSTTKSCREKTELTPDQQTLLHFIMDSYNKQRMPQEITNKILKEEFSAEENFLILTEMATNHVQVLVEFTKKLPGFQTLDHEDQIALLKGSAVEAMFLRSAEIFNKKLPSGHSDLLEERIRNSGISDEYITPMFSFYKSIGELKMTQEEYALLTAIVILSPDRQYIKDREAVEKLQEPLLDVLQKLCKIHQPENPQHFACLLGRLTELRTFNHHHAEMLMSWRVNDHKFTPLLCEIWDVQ

Experiment [1] is described as follows: qHTS assay to identify small molecule antagonists of the retinoic acid receptor (RAR) signaling pathway (AID 1159552; further: nearly all actives have a fitted effect of over 50% in size; further: potency means the concentration at half of the fitted maximal effect). A digest of the protocol: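 Readout: luciferase luminescence, 30 min post-reagent at RT. Setup: C3RL4 RARE reporter cells, compounds plus retinol 1 uM final, 6 hr incubation at 37 C and 5% CO2.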
A general note: Quantitative high-throughput screening tests each substance at several concentrations.

Experiment [2] concerns the target Androgen receptor (Homo sapiens) (UniProt P10275). Put plainly: qHTS assay to identify small molecule agonists of the androgen receptor (AR) signaling pathway using the MDA cell line (AID 743040; further: nearly all actives have a fitted effect of over 20% in size). Particulars: MDA-kb2 AR-luc cells, MMTV luciferase, 16 h, stronger effect = higher value.
Experiment [3] has the same target. Kind of experiment: qHTS assay to identify small molecule antagonists of the androgen receptor (AR) signaling pathway using the MDA cell line (AID 743042; further: nearly all actives have a fitted effect of over 55% in size; further: potency means the concentration at half of the fitted maximal effect).
Experiment [4] has the same target. Kind of experiment: qHTS assay to identify small molecule antagonists of the androgen receptor (AR) signaling pathway using the MDA cell line in the presence of 0.5 nM R1881 (AID 1259243). Further: nearly all actives have a fitted effect of over 50% in size. Further: potency means the concentration at half of the fitted maximal effect.
In experiment [5] the target is Estrogen receptor beta (Homo sapiens) (UniProt Q92731). Kind of experiment: qHTS assay to identify small molecule antagonists of the estrogen receptor beta (ER-beta) signaling pathway (AID 1259378; active means well fitted inhibition curve with a large enough effect in the signal ratio in the repeat runs, not every such curve was filed as active; the % refers to the signal ratio; further: potency means the concentration at half of the fitted maximal effect). In a few lines:
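ER-beta-UAS-bla HEK293T cells in 2% charcoal-stripped FBS medium treated with compound plus 1nM final 17-beta-estradiol for 16 hr at 37C. Beta-lactamase reporter read by FRET substrate fluorescence after 2 hours at room temperature.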

The target of experiment [6] is Androgen receptor (Homo sapiens) (UniProt P10275). Put plainly: qHTS assay to identify small molecule agonists of the androgen receptor (AR) signaling pathway in the presence of an antagonist (AID 1259381; calls by dose curve; further: nearly all actives have a fitted effect of over 15% in size).
For experiment [7], the target named is Estrogen receptor (Homo sapiens) (UniProt P03372). Kind of experiment: qHTS assay to identify small molecule antagonists of the estrogen receptor alpha (ER-alpha) signaling pathway using the BG1 cell line in the presence of 0.1 nM 17-beta-estradiol (AID 1259244). Further: nearly all actives have a fitted effect of over 50% in size. The note with it: VM7Luc4E2 (BG1) ERE-luciferase, antagonist mode, 0.1 nM E2, 22 h.
For experiment [8] the target is unchanged. Put plainly: qHTS assay to identify small molecule agonists of the estrogen receptor alpha (ER-alpha) signaling pathway in the presence of an antagonist (AID 1259383; calls by dose curve; further: top concentration of the series differs between compounds; nearly all actives have a fitted effect of over 15% in size).
Experiment [9] addresses Nuclear receptor subfamily 1 group I member 3 (Homo sapiens) (UniProt Q14994). Kind of experiment: qHTS assay to identify small molecule agonists of the constitutive androstane receptor (CAR) signaling pathway (AID 1224839).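 Further: HepG2 cells stably carrying human CAR and a CYP2B6 luciferase reporter; nearly all actives have a fitted effect of over 15% in size.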 Particulars: HepG2 hCAR CYP2B6-luciferase, agonist mode, 24 h.
Experiment [10] concerns the target Nuclear receptor subfamily 1 group I member 2 (Homo sapiens) (UniProt O75469). Kind of experiment: Human pregnane X receptor (PXR) small molecule agonists, qHTS assay (AID 1346982). Further: nearly all actives have a fitted effect of over 35% in size. Further: potency means the concentration at half of the fitted maximal effect. In a few lines: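 PXR-Luc HepG2 cells (CYP3A4 promoter-driven luciferase) were seeded in medium with 5% charcoal-stripped FBS, left 5 hr at 37 C, then exposed to compounds in DMSO for 24 hr. Luminescence was read after ONE-Glo addition.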

Experiment [11] has as its target Androgen receptor (Homo sapiens) (UniProt P10275). Put plainly: qHTS assay to identify small molecule antagonists of the androgen receptor (AR) signaling pathway (AID 743035; active means well fitted inhibition curve with a large enough effect in the signal ratio in the repeat runs, not every such curve was filed as active; the % refers to the signal ratio; further: potency means the concentration at half of the fitted maximal effect).
Experiment [12] concerns the target Nuclear receptor subfamily 1 group I member 3 (Homo sapiens) (UniProt Q14994). Kind of experiment: qHTS assay to identify small molecule antagonists of the constitutive androstane receptor (CAR) signaling pathway (AID 1224838).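 Further: HepG2 cells stably expressing hCAR with CYP2B6 luciferase reporter stimulated by CITCO; nearly all actives have a fitted effect of over 40% in size.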 The note with it: HepG2-CYP2B6-hCAR luciferase, CITCO-stimulated, 24 h.
Experiment [13] concerns the target Nuclear receptor subfamily 1 group I member 2 (Homo sapiens) (UniProt O75469). Put plainly: Human pregnane X receptor (PXR) activation by small molecules, qHTS assay (AID 1346985). Further: nearly all actives have a fitted effect of over 40% in size.
Experiment [14] deals with Estrogen receptor (Homo sapiens) (UniProt P03372). Kind of experiment: qHTS assay to identify small molecule agonists of the estrogen receptor alpha (ER-alpha) signaling pathway (AID 743075; calls by dose curve;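 further: HEK293 GripTite cells with ER-alpha and UAS-driven beta-lactamase reporter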; further: potency means the concentration at half of the fitted maximal effect).
For experiment [15], the target named is Bile acid receptor (Homo sapiens) (UniProt Q96RI1). Put plainly: qHTS assay to identify small molecule antagonists of the farnesoid-X-receptor (FXR) signaling pathway (AID 743217; active means well fitted inhibition curve with a large enough effect in the signal ratio in the repeat runs, not every such curve was filed as active; the % refers to the signal ratio). The note with it: HEK293T FXR-UAS-bla, beta-lactamase ratio, CDCA-stimulated, 16 h. In a few lines: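 FXR-UAS-bla HEK 293T cells pre-incubated 5 h at 37 °C, then exposed to compounds with chenodeoxycholic acid (50 uM final) for 16 h at 37 °C. Beta-lactamase reporter read by LiveBLAzer B/G FRET substrate fluorescence after 2 h at room temperature.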

Experiment [16] has the same target. Put plainly: qHTS assay to identify small molecule agonists of the farnesoid-X-receptor (FXR) signaling pathway (AID 743220; active means well fitted activation curve with a large enough effect in the signal ratio in the repeat runs, not every such curve was filed as active; the % refers to the signal ratio). The note with it: HEK293T FXR-UAS-bla, beta-lactamase FRET ratio, 16 h.
Experiment [17] concerns the target Estrogen receptor (Homo sapiens) (UniProt P03372). Kind of experiment: qHTS assay to identify small molecule antagonists of the estrogen receptor alpha (ER-alpha) signaling pathway (AID 743069; active means well fitted curve in the direction sought with a large enough effect in the signal ratio in the repeat runs, not every such curve was filed as active; the % refers to the signal ratio).
For experiment [18] the target is unchanged. Kind of experiment: qHTS assay to identify small molecule agonists of the estrogen receptor alpha (ER-alpha) signaling pathway using the BG1 cell line (AID 743079). Further: nearly all actives have a fitted effect of over 20% in size. Further: potency means the concentration at half of the fitted maximal effect.
In experiment [19] the target is Estrogen receptor beta (Homo sapiens) (UniProt Q92731). Put plainly: qHTS assay to identify small molecule agonists of the estrogen receptor beta (ER-beta) signaling pathway (AID 1259377; active means well fitted activation curve with a large enough effect in the signal ratio in the repeat runs, not every such curve was filed as active; the % refers to the signal ratio). Particulars: ER-beta-UAS-bla HEK293T, beta-lactamase FRET ratio, 16 h; at 92.4 µM (top of the series) unless noted.

“And” between values parts separate entries of the source, which are not always exact repeats. Equal entries are not always repeated. For part of these data: Shown are results outside the selection of hits, which stands elsewhere. Records with an inconclusive call do not appear. Where a structure was tested more than once in an assay, its records may differ in their call. Only a part is listed here, and it is no random draw. The source made the active and inactive calls. Unless noted, the call rests on the fitted dose curve; in most records, active means well fitted curve in the direction sought with a large enough effect in the repeat runs; inconclusive means weak or mixed curves; inactive means no such curve, though single readings can be large; an effect the other way counts as inactive or inconclusive.
On the % scale 0 is the no-effect control and ±100 the full control effect.

In the case of `CN1C(C)(C)CCCC1(C)C`, in [1], the Potency entry was “inactive”.
Regarding `CCCCCCCCCCCCCC[n+]1ccccc1`, the activity change in [2] (at 70.3 µM (top of the series)) was inactive: -2.98%. Also, the Potency is active: 1.54 µM in experiment [3], active: 24.3 µM in [1], active: 1.22 µM in [4] and active: 61.1 µM in experiment [5]. In addition, in experiment [6], the Potency result is “inactive”.
In the case of `Nc1c2c(nc3c1CCC3)CCCC2`, the Potency result in experiment [1] and in experiment [5] was “inactive” throughout.
Regarding `CC(C)c1ccc2c(c1)CC[C@H]1[C@](C)(CN)CCC[C@]21C`, the activity change in [2] (at 70.3 µM (top of the series)) is inactive: -10.5%. Further, the Potency is active: 17.2 µM in [3], active: 61.1 µM in experiment [1] and active: 17.2 µM in experiment [4]. For the same compound, the activity change, negative = inhibition in experiment [7] (at 92.4 µM (top of the series)) is inactive: 0.0641%. For the same compound, the Potency entry in experiment [6] and in experiment [8] was “inactive” in each case.
Consider `CNCCC(Oc1ccc(C(F)(F)F)cc1)c1ccccc1` (centres undefined), for which the results for the activation in experiment [9] (at 42.5 µM (top of the series)) and in experiment [9] (at 92.4 µM (top of the series)) were inactive: -22.4% and inactive: -23.4%, respectively. Also, in [10], the Potency entry was “inactive”.
Consider `CCCCCCCC[P+](CCCCCCCC)(CCCCCCCC)CCCCCCCC`, for which the activity change in experiment [2] (at 70.3 µM (top of the series)) was inactive: -1.42%. Moreover, the figures for the Potency in experiment [3] and in experiment [4] were active: 1.71 µM and active: 0.242 µM, respectively. Further, the Potency entry in [6] was “inactive”.
In the case of `O=C(O)O`, the activation in [9] (at 8.39 µM (top of the series)) is inactive: 6.98%.
As to `CCCCCCCCCCCCCCCC[N+](C)(C)CCN(Cc1ccc(OC)cc1)c1ncccn1`, the values for the Potency in experiment [11] and in experiment [4] were active: 10.2 µM and active: 29.8 µM, respectively. In experiment [2] (at 32.5 µM (top of the series)), the activity change was inactive: -6.07%. For the same compound, the Potency entry in [3] and in experiment [6] was “inactive” each time.
In the case of `C=C[C@H]1CN2CC[C@H]1C[C@@H]2[C@@H](O)c1ccnc2ccc(OC)cc12`, the activation in experiment [9] (at 42.5 µM (top of the series)) was inactive: 0.902%; in experiment [9] (at 92.4 µM (top of the series)), inactive: -2.48%.
`CCCCCCCCCCCC[N+](C)(C)Cc1ccccc1`: the activity change is inactive: -10.7% and inactive: 11.4% in [2] (at 70.3 µM (top of the series)); inactive: -11% in [2] (at 95 µM (top of the series)). Besides, the Potency in [3] is active: 21.1 µM and active: 16.9 µM and active: 21 µM; in experiment [4], active: 9.5 µM and active: 11.8 µM and active: 5.31 µM; in [5], active: 47.6 µM. The Potency result in [6] was “inactive”.
For the compound `[Cl][In]([Cl])[Cl]`, the Potency result in experiment [1] is “inactive”.
`C[C@]12CCC(=O)C=C1CC[C@@H]1[C@@H]2[C@@H](O)C[C@@]2(C)[C@H]1CC[C@]2(O)C(=O)CO`: the activity, negative = inhibition in experiment [12] (at 42.5 µM (top of the series)) is inactive: 5.33%; in experiment [12] (at 92.4 µM (top of the series)) it was inactive: -8.91%. Besides, the Potency in experiment [10] was active: 30.9 µM and inactive. The Potency result in experiment [13] was “inactive”.
Turning to `CC1CCc2cc(F)cc3c(=O)c(C(=O)O)cn1c23` (centres undefined), the activation in experiment [9] (at 42.5 µM (top of the series)) was inactive: -3.02%. In addition, the Potency result in experiment [10] is “inactive”.
Turning to `O=S1(=O)N=C(O)c2ccccc21`, the Potency result in [1] and in experiment [5] was “inactive” in each case.
For `F[Si-2](F)(F)(F)(F)F`, the Potency result in [11], in experiment [3], in experiment [4] and in experiment [6] was “inactive” each time. Also, in [2] (at 70.3 µM (top of the series)), the activity change is inactive: -0.18% and inactive: 2.65%.
Take `O=C(O)CCCC[P+](c1ccccc1)(c1ccccc1)c1ccccc1`: the Potency entry in experiment [1], in experiment [4] and in experiment [6] was “inactive” throughout.
Turning to `O=C(O)CCNC(=O)c1ccccc1`, in [9] (at 42.5 µM (top of the series)), the activation was inactive: 0.136%.
Regarding `Nc1ccc(N)c(Cl)c1`, the Potency entry in experiment [14] and in experiment [8] was “inactive” each time. For the same compound, the activity change, negative = inhibition in [15] (at 62.6 µM (top of the series)) was inactive: 1.3%. Moreover, the activation in experiment [16] (at 62.6 µM (top of the series)) is inactive: -0.846% and inactive: 2.1%.
Turning to `COC(=O)C(c1ccccc1Cl)N1CCc2sccc2C1` (centres undefined), the Potency entry in experiment [17], in experiment [5] and in experiment [8] was “inactive” throughout. For the same compound, the Potency was active: 10.7 µM [activator] in experiment [14] and active: 21.1 µM in experiment [18]. Besides, the activity change, negative = inhibition is inactive: -18.5% in experiment [15] (at 62.6 µM (top of the series)) and inactive: 2.22% in [7] (at 42.5 µM (top of the series)). Further, the activation in [16] (at 62.6 µM (top of the series)) is inactive: 2.33%.
As for `Cc1cc(C2CCCCC2)n(O)c(=O)c1`, the activation in [19] was inactive: -2.64% [at 42.5 µM].
As for `CN1CCC[C@H]1c1cccnc1`, the Potency entry in [17], in experiment [14], in experiment [18], in [5] and in [8] was “inactive” throughout. Also, the activity change, negative = inhibition is inactive: 2.29% in experiment [7] (at 42.5 µM (top of the series)); inactive: -0.89% and inactive: -1.91% in experiment [7] (at 92.4 µM (top of the series)).
For `CN1CCC[C@@H]1c1cccnc1`, the Potency entry in experiment [17], in experiment [14], in [18] and in experiment [8] was “inactive” throughout. In addition, the activity change, negative = inhibition in [7] (at 42.5 µM (top of the series)) is inactive: -3.69%.
For `C[n+]1ccn(CCO)c1`, the Potency result in [17], in experiment [14] and in experiment [8] was “inactive” throughout. Further, the activity change, negative = inhibition in experiment [7] (at 92.4 µM (top of the series)) was inactive: 14.1% and inactive: 2.64%.
In the case of `CN(C)CCOc1ccccc1Cc1ccccc1`, the activity change, negative = inhibition in [7] (at 42.5 µM (top of the series)) was inactive: -1.71%. Further, the Potency entry in experiment [8] was “inactive”.
In the case of `[Cl][Eu]([Cl])[Cl]`, in [5], the Potency entry is “inactive”.
For `NC[C@H]1O[C@H](O[C@H]2[C@H](O)[C@@H](O[C@H]3O[C@H](CO)[C@@H](O)[C@H](N)[C@H]3O)[C@H](N)C[C@@H]2N)[C@H](N)[C@@H](O)[C@@H]1O`, in experiment [15] (at 29.1 µM (top of the series)), the activity change, negative = inhibition was inactive: -13.6%. In [16] (at 29.1 µM (top of the series)), the activation was inactive: 5.88%. In [5], the Potency result was “inactive”.
Consider `Cc1ccc(S(=O)(=O)NCl)cc1`, for which the Potency result in experiment [5] is “inactive”.
On the same count and under the same terms, the same measure for `O=S(=O)(O)c1ccc(O)c2ncccc12`: “inactive”.
For `N=C(N)N1CCc2ccccc2C1`, the Potency result in experiment [17], in [14] and in experiment [18] was “inactive” throughout. In addition, in experiment [7] (at 8.39 µM (top of the series)), the activity change, negative = inhibition is inactive: -8.37%. For the same compound, the activity, negative = inhibition in [5] was inactive: 6.74% [at 8.39 µM]. In addition, in experiment [8], the activation is inactive: -0.711% [at 8.39 µM].
For the compound `[Cl][Dy]([Cl])[Cl]`, in [5], the Potency result was “inactive”.
